{"sequences": {"note": "Protein sequences, listed by entry. Tags and fused reporters are not part of them.", "UniProt P0DMS8, whole entry": "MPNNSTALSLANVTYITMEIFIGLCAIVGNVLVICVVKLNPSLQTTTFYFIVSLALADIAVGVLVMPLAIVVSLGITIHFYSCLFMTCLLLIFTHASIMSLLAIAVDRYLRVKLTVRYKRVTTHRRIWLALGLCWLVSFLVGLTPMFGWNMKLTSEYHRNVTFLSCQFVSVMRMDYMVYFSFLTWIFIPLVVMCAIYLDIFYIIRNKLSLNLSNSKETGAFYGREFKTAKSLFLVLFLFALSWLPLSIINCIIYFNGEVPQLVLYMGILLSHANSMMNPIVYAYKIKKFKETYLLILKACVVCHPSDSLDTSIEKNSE", "UniProt P11712, whole entry": "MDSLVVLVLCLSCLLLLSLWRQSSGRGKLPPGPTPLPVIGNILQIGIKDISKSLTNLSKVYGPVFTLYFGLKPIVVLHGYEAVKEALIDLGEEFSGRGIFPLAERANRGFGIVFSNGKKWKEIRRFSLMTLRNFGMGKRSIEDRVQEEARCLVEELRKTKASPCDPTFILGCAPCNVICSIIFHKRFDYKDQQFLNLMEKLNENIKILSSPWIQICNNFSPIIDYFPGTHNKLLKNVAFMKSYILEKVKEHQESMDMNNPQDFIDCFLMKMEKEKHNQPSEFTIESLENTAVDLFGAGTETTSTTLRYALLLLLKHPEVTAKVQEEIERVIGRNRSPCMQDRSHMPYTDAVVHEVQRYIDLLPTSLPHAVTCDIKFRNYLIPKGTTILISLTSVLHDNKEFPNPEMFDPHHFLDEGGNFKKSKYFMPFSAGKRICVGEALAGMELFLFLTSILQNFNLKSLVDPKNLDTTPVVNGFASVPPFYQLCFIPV"}, "source": "patent US8952020B2", "about": "“Optically active pyrazolylaminoquinazoline, and pharmaceutical compositions and methods of use thereof” (Ambit Biosciences Corp., priority 2010, dated 2015)", "key": {"[1]": {"experiment": "Pharmacokinetic studies in monkeys"}, "human ADORA3": {"biological_target": "human ADORA3 (Homo sapiens, UniProt P0DMS8)", "experiment": "Adenosine A3 receptor antagonist PathHunter β-Arrestin cell based assay"}, "CYP2C9": {"biological_target": "CYP2C9 (Homo sapiens, UniProt P11712)", "experiment": "CYP450 inhibition in human liver microsomes"}, "[2]": {"biological_target": "T1, human adenosine A3 receptor (Homo sapiens, UniProt P0DMS8)", "T1 construct": "expressed in transfected cells; host or cells: CHO-K1", "experiment": "Adenosine A3 receptor radioligand binding assay ([125I] AB-MECA)", "settings": "Cheng-Prusoff from observed IC50"}}, "data": [{"molecule": "Cc1cc(Nc2nc(C(O)c3ccc(F)cc3)nc3ccccc23)n[nH]1", "note": "(racemic) [Racemate]", "values": [{"measurement": "Tmax", "setting": "[1]; Racemic administered PO 10 mg/kg, chiral analysis, label = analyte", "value": 3.3, "unit": "h"}, {"measurement": "Tmax", "setting": "[1]; compound administered PO 10 mg/kg, analyte = compound administered", "value": 3.3, "unit": "h"}, {"measurement": "IC50", "setting": "human ADORA3", "value": 0.0262, "unit": "µM"}, {"measurement": "IC50", "setting": "CYP2C9", "value": 17.4, "unit": "µM"}]}, {"molecule": "Cc1cc(Nc2nc([C@H](O)c3ccc(F)cc3)nc3ccccc23)n[nH]1", "note": "[(R)(−)]", "values": [{"measurement": "Ki", "setting": "[2]", "value": 0.0258, "unit": "µM"}, {"measurement": "IC50", "setting": "human ADORA3", "value": 0.212, "unit": "µM"}]}, {"molecule": "Cc1cc(Nc2nc([C@@H](O)c3ccc(F)cc3)nc3ccccc23)n[nH]1", "note": "[(S)(+)]", "values": [{"measurement": "IC50", "setting": "human ADORA3", "value": 0.0285, "unit": "µM"}]}]}
